The values below are quoted from earlier work in patent US8242148B2 (priority 2005, dated 2012).

Amino acid sequences for entries named in this document (tags omitted). A change or cut given only in a name is not applied to a line headed by its entry.
UniProt Q9QYN8: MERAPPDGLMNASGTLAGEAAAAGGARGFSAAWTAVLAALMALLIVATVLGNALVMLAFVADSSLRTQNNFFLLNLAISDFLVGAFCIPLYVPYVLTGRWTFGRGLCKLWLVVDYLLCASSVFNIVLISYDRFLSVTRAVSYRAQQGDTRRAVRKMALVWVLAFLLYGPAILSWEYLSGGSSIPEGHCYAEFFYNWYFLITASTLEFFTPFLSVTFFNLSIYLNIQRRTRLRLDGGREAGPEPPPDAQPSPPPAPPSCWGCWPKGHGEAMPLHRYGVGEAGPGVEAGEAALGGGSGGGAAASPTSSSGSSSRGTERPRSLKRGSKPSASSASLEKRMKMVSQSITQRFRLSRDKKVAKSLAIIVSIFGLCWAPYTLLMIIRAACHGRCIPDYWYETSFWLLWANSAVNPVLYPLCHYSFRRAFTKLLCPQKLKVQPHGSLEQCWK

For this data set, the target named is T1, H3 receptor (Rattus norvegicus, UniProt Q9QYN8).
T1 construct: In rats, a selective H3 receptor antagonist, ABT-239; host or cells: living rats (prefrontal cortex, hippocampus)
To be noted: rats, cited from earlier work.

As for `C[C@@H]1CCCN1CCc1cc2cc(-c3ccc(C#N)cc3)ccc2o1` [ABT-239], the “Learning in an inhibitory avoidance model of ADHD” value is on record as “improving learning”. Besides, the Acetylcholine release result (prefrontal cortex and hippocampus) is listed as “enhancement of acetylcholine release”.
